These are literature values, as cited in patent US10881637B2, “Intranasal and transdermal administration of kappa-opioid-receptor agonists: salvinorin A for the treatment of neuropsychiatric and addictive disorders” (priority 2015, dated 2021).

Protein sequences, listed by entry. Tags and fused reporters are not part of them. Lines headed by an entry give the natural chain unless they say otherwise; changes in a name come on top.
UniProt P41145: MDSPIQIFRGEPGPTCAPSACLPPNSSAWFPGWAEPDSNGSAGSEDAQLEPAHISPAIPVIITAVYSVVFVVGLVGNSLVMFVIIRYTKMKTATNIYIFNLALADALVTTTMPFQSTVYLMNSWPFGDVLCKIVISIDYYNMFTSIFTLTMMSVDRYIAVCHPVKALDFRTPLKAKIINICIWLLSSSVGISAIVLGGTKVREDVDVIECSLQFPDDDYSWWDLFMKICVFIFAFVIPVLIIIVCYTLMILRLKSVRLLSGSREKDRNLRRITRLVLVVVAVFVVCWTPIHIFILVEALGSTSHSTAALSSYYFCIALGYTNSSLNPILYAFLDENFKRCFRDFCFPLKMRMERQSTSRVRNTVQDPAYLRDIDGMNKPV

Read-outs that look alike come from different tables or passages of the source.

For this data set, the target named is kappa-opioid receptor (Homo sapiens, UniProt P41145). The settings on record: cited from earlier work.

Take `COC(=O)[C@@H]1C[C@H](OC(C)=O)C(=O)[C@H]2[C@@]1(C)CC[C@H]1C(=O)O[C@H](c3ccoc3)C[C@]21C` [salvinorin A]: the kappa-opioid-receptor activity entry is listed as “uniquely selective kappa-opioid-receptor agonist”. The kappa-opioid-receptor activity result (listed as Salvinorin A) is listed as “selective kappa-opioid-receptor agonist”.
